# Measurements taken from PubChem BioAssay (EPA / NIEHS).
# Only a part is listed here, and it is no random draw. Records with an inconclusive call do not appear. Activity calls are given as the source filed them. The calls were made as follows, unless noted: active = hit-call score of the fitted dose curve at least 0.9, where 1 is the maximum; inconclusive = response in the unintended direction; inactive = score below 0.9.
# Columns and labels:
# [1] = ACEA_ER_AUC_viability: ACEA Biosciences xCELLigence Real-Time Cell Analysis on Estrogen Receptor Agonism for Viability (AID 2283782);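 also: continuous compound exposure with impedance area under curve over 80 h; hit means loss of impedance signal meaning reduced cell growth or viability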
# Procedure: ACEA_ER is a cell-based, single-readout assay that uses T47D, a human breast cell line, with measurements taken at 80 hours after chemical dosing in a 96-well plate, although TO2 (mc0.srcf) used a 384-well plate. Differences in plate size can be ignored given data normalization.ACEA_ER_AUC_viability is one of two assay component(s) measured or calculated from the ACEA_ER assay. It is designed to make measurements of real-time cell-growth kinetics, a form of growth reporter, as detected with electrical impedance signals by Real-Time Cell Electrode Sensor (RT-CES) technology.Data from the assay component ACEA_ER_AUC_viability was analyzed in the positive analysis fitting direction relative to DMSO as the negative control and baseline of activity. Using a type of growth reporter, loss-of-signal activity can be used to understand changes in the viability. Furthermore, this assay endpoint can be referred to as a secondary readout, because this assay has produced multiple assay endpoints where this one serves a viability function. To generalize the intended target to other relatable targets, this assay endpoint is annotated to the cell cycle intended target family, where the subfamily is cytotoxicity.
# The xCELLigence system Multi-E-Plate stations were used to measure the time-dependent response to chemicals. Each compound was tested in an eight-point, 1:4 serial dilution series starting at a maximum final concentration of 100 uM. A maximum starting concentration of 0.5% DMSO was present in the 100 uM chemical samples and was diluted along with the test article dilution series. The screen was performed in biological duplicate using two separate, 96-well, E-Plates 96 for each dilution series (n = 2). Positive controls (MG132 and E2) and a negative control (assay media) were tested in quadruplicate on each testing plate. Then, 0.5% and 0.125% DMSO were tested in duplicates in each plate to serve as solvent controls for the 2 highest concentrations of testing compounds: 100 uM and 25 uM. Reference compounds were tested with 8 concentrations with 1:5 serial dilutions. All screening was carried out by ACEA Biosciences, Inc. (San Diego, CA). T-47D cells purchased from ATCC were maintained in RPMI1640 media supplemented with 10% characterized fetal bovine serum (FBS). Before screening, T-47D cells were preconditioned in assay medium: phenol red-free RPMI1640 supplemented with 10% charcoal-stripped FBS. Cells were then detached and seeded in E-Plates 96 in assay medium. After overnight monitoring of growth once every hour, compounds were added to […] cells and remained in the medium until the end of the experiment. Cellular responses were then recorded once every 5 min for the first 5 h, and once every hour for an additional 100 h.
# [2] = ACEA_AR_agonist_AUC_viability: ACEA Biosciences xCELLigence Real-Time Cell Analysis on Androgen Receptor Agonism for Viability (AID 2283775)
# Method in brief: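 22Rv1 cells; impedance growth kinetics; 8-pt 1:4 dilutions from 100 uM top final, ≤0.5% DMSO; n = 2; 80 h read; AUC viability, loss-of-signal vs DMSO.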
# [3] = ACEA_AR_antagonist_AUC_viability: ACEA Biosciences xCELLigence Real-Time Cell Analysis on Androgen Receptor Antagonism for Viability (AID 2283776);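 also: area under impedance growth curve at 80 h after dosing as viability; hits lower the growth signal relative to DMSO meaning cytotoxicity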
# Procedure: ACEA_AR_antagonist is a cell-based, single-readout assay that uses 22Rv1, a human prostate cancer cell line, with measurements taken at 80 hours after chemical dosing in a 384-well plate, although TO5 and TO6 (mc0.srcf) used a 96-well plate. Differences in plate size can be ignored given data normalization.ACEA_AR_80hr is one of two assay component(s) measured or calculated from the […] assay. It is designed to make measurements of real-time cell-growth kinetics, a form of growth reporter, as detected with electrical impedance signals by Real-Time Cell Electrode Sensor (RT-CES) technology.Data from the assay component ACEA_AR_antagonist_AUC_viability was analyzed in the positive analysis fitting direction relative to DMSO as the negative control and baseline of activity. Using a type of growth reporter, loss-of-signal activity can be used to understand changes in the viability. Furthermore, this assay endpoint can be referred to as a secondary readout, because this assay has produced multiple assay endpoints where this one serves a viability function. […]
# The xCELLigence system Multi-E-Plate stations were used to measure the time-dependent response to chemicals. […] Cellular responses were then recorded once every 5 min for the first 5 h, and once every hour for an additional 100 h.
# [4] = Tanguay_ZF_120hpf_NC_legacy: (Legacy) Oregon State University Tanguay Lab 120 Hour Post-fertilization zebrafish Assay for Notochord and Tail Malformation (AID 2283656)
# Method in brief: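 Binary scoring of notochord distortion by brightfield microscopy; embryos dying were not scored. Wild-type Tropical 5D embryos, chorion removed, exposed singly and statically from 6 to 120 hpf, 28C, sealed, 0.64% DMSO.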
# [5] = CCTE_Padilla_ZF_144hpf_TERATOSCORE: (Legacy) CCTE's 144 Hour Post-fertilization zebrafish Assay Teratoscore, Padilla Lab (AID 2283679; active = hit-call score of the fitted dose curve at least 0.9, where 1 is the maximum; inactive = score below 0.9;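 also: zebrafish embryos with chorions exposed by immersion from 6-8 hpf to 5 dpf with daily renewal; teratogenicity score from eye scoring of death hatching and malformations at 144 hpf; higher score means more developmental defects relative to DMSO baseline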)
# Method in brief: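 Larvae scored by eye at 144 hpf for death, hatching and malformations after a day in clean Hanks'. Before that, daily-renewed exposure at 80 uM (0.4% DMSO, 26C) from roughly 6-8 hpf through 5 dpf, 4 embryos per chemical.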
# [6] = Tanguay_ZF_120hpf_ActivityScore_legacy: (Legacy) Oregon State University Tanguay Lab 120 Hour Post-fertilization zebrafish Assay Score for Activity (AID 2283742);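 also: dechorionated Tropical 5D wild-type zebrafish embryos held singly per well; static exposure from 6 hpf until 120 hpf at 28 °C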
# Procedure: Tanguay_ZF_120hpf_legacy is a whole embryo, multiplexed endpoint assay using zebrafish larvae exposed for 120 hours post fertilization on a 96-well plate.Tanguay_ZF_120hpf_ActivityScore_legacy is one of one assay component(s) measured or calculated from the Tanguay_ZF_120hpf_legacy assay. It is designed to make measurements of developmental malformations and mortality as detected with brightfield microscopy and combines scoring from 18 other assay components measuring more specific morphologies.Data from the assay component Tanguay_ZF_120hpf_ActivityScore_legacy was analyzed into 1 assay endpoints. This assay endpoint, Tanguay_ZF_120hpf_ActivityScore_legacy, was analyzed in the positive analysis fitting direction relative to DMSO as the negative control and baseline of activity. […]
# Zebrafish husbandry: Tropical 5D wild-type adult zebrafish were housed in at an approximate density of 1000 per 100 gallon tank at the Sinnhuber Aquatic Research Laboratory, Oregon State University, Corvallis, OR. […] At 24 hpf, embryos were assessed for photomotor response using a custom photomotor response analysis tool (PRAT) and for developmental toxicity endpoints (MO24: mortality at 24 hpf, DP: developmental progression, SM: spontaneous movement, and NC: notochord distortion). At 120 hpf, locomotor activity was measured using Viewpoint Zebralab and assessed for 18 endpoints. […]
# [7] = CCTE_Simmons_MITO_basal_resp_rate: CCTE's HepG2 Seahorse XF Respirometric Screening Assay at Basal Respiratory State, Simmons Lab (AID 2284001; active = hit-call score of the fitted dose curve at least 0.9, where 1 is the maximum; inactive = score below 0.9); conditions: actives raise or lower the signal
# Method in brief: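 Readout is oxygen consumption rate after test compound injection, measured by Seahorse XF in HepG2 cells. Seven concentrations from 125 nM up to 100 uM final are tested, and activity in either direction is fitted against DMSO.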
# [8] = CCTE_Simmons_MITO_max_resp_rate: CCTE's HepG2 Seahorse XF Respirometric Screening Assay at Maximal Respiratory State [uncoupled], Simmons Lab (AID 2284002; active = hit-call score of the fitted dose curve at least 0.9, where 1 is the maximum; inactive = score below 0.9); conditions: actives raise or lower the signal
# Method in brief: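 Maximal respiration in HepG2 cells is recorded as OCR by Seahorse XF following FCCP injection. Compounds span 125 nM–100 uM final; activity is called in either direction against DMSO.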
# [9] = CCTE_Simmons_MITO_inhib_resp_rate: CCTE's HepG2 Seahorse XF Respirometric Screening Assay at Inhibited Respiratory State [full ETC block], Simmons Lab (AID 2284006; active = hit-call score of the fitted dose curve at least 0.9, where 1 is the maximum; inactive = score below 0.9); conditions: actives raise or lower the signal
# Method in brief: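 Seahorse respirometry, HepG2, 72 min total, 6-min mix/measure cycles. Cpd 125 nM–100 uM final ×7, n=3 biological. Sequential FCCP, rotenone/antimycin A; inhibited-respiration OCR, bidirectional fit vs DMSO.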
# [10] = CCTE_Simmons_MITO_viability: CellTiter-Glo Viability Assessment for CCTE's HepG2 Seahorse XF Respirometric Screening Assay [post-hoc], Simmons Lab (AID 2284007);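 also: cells exposed to chemical for 90 min before the ATP read; actives lower ATP signal relative to DMSO baseline meaning reduced viability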
# Procedure: CCTE_Simmons_MITO is cell-based, respirometric assay using HepG2 cells and a Seahorse XF Analyzer to measure oxygen consumption rates over four temporal phases spanning a total of 72 minutes: pre-injection (pre-treatment), basal (following test compound injection), maximal (following FCCP uncoupler injection), and inhibited (following rotenone/antimycin A injection)CCTE_Simmons_MITO_viability is one of 4 assay components measured from the CCTE_Simmons_MITO assay. It is designed to make measurements of ATP content, a form of viability reporter, as detected with bioluminescence signals by Luciferase-coupled ATP quantitation technology. Data from the assay component CCTE_Simmons_MITO_viability was analyzed at the endpoint, CCTE_Simmons_MITO_viability, in the positive analysis fitting direction relative to DMSO as the negative control and baseline of activity. Using a type of viability reporter, measures of ATP content for loss-of-signal activity can be used to understand the viability. To generalize the intended target to other relatable targets, this assay endpoint is annotated to the cell cycle intended target family, where the subfamily is cytotoxicity.
# Test chemicals were administered as a titrated series of 7 concentrations from 125 nM up to 100 uM [final] for 90 minutes prior to single endpoint detection. […]
smiles,measurement,setting,value
CC(C)OP(OC(C)C)OC(C)C,AC50,[1],active: 50 µM
ClCCNCCCl,outcome,[1],inactive
CCOP(=O)(Cl)Cl,AC50,[1],active: 28.6 µM
ClCCOP(OCCCl)OCCCl,outcome,[2],inactive
same,outcome,[3],inactive
O=[N+]([O-])c1ccccc1[N+](=O)[O-],outcome,[4],inactive
same,AC50,[5],active: 7.95 µM
same,AC50,[6],active: 30.8 µM
same,outcome,[2],inactive
same,AC50,[3],active: 67.2 µM
same,AC50,[1],active: 90.3 µM
same,AC50,[7],active: 31.1 µM
same,outcome,[8],inactive
same,AC50,[9],active: 50 µM
same,AC50,[10],active: 34.1 µM
